## Binding of CDR-mutated scFvs to a peptide of the spike HR2 region

Values reported by Li et al. 2023, doi:10.1038/s41467-023-39022-2 (FLAb copy).

Binding partner: SARS-CoV-2 spike HR2 peptide, sequence PDVDLGDISGINAS.

Each scFv is VH, a 15-residue (Gly4Ser)3 linker, VL, as in the parent Ab-14, and differs from it in the CDRs of the heavy chain only.
VH: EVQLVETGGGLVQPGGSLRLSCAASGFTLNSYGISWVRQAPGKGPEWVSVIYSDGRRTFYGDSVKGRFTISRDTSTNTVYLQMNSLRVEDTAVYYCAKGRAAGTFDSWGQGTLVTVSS
VL: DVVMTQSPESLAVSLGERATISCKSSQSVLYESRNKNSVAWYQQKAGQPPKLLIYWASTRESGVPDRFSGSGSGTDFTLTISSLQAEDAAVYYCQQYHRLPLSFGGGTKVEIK

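The parent was found by panning a naive human phage display library on the peptide. These sequences belong to a second round, designed from the earlier measurements on random variants of the parent. Group labels follow the data file (Ctrl: baseline library sampled from a position-specific scoring matrix, with some repeated check sequences; Rand: our label for a block that the file lists under HC and that is probably the random mutants of the ten best first-round binders; En: ensemble of fine-tuned language models; GP: Gaussian process model; GPLM: also part of the Gaussian process libraries; HC: hill climbing; Gen: genetic algorithm; Gibbs: Gibbs sampling; a sequence that several methods proposed may carry one label only). AlphaSeq pools MATa yeast showing the antibodies with MATalpha yeast showing the peptide. Pairs that bind mate more often; barcode pairs of the diploids are counted by sequencing. A regression on co-assayed BCL2-family reference pairs converts the normalised counts of each replicate to an apparent Kd. Each pool was mated in six replicate cultures.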

The parent's heavy chain CDRs are GFTLNSYGIS, VIYSDGRRTFYGDSVK, GRAAGTFDS; each variant's own CDRs replace them letter for letter.
Numbers give log10(Kd / nM), so 0 is 1 nM and 3 is 1 µM. Smaller is tighter.
The mean shown is taken over the replicates in which the pair was detected.
A pair that was not seen in any replicate is written "no signal"; this usually means weak binding, but a binder can also be missed.

mean, log10 nM	seen in	CDR-H1	CDR-H2	CDR-H3	group
no signal	0/6	GFTLNSYGIS	VIYSDGRRTFYGDSVK	GRHAGTFVS	Ctrl
0.89	6/6	GFSLNMYGIS	VIYSDGRRTFYGDSVK	GKTAGTFDS	GP_Gen
0.72	6/6	GFNLNSYGIS	VIYSDGRRTFYGDSVK	GNLAGTFDS	GP_Gibbs
1.12	6/6	GFTLNSYGIS	VIYSDGVRTFYGDSVK	GRTAGTFDS	GPLM_Gen
-0.74	6/6	GFDLNEYGIS	VIYADGMRTYYSDSVK	GNVAGTFDV	En_Gen
no signal	0/6	GFDLNSYGIS	VIYSDGRRTFYGDKVK	GRAAGGFDS	Ctrl
no signal	0/6	GFTLNSYGIS	VIYSDGRRTFYGDSVK	GRLAATFDS	Ctrl
no signal	0/6	GFNFDEYGIS	VIYADGKRKAYSDSVK	GLSAGTMEV	En_Gibbs
-0.18	6/6	GFDLNDYGIS	VIYSDGRRTFYGDSVK	GRTAGTFDS	GPLM_Gen
2.62	2/6	GFSIDEYGIS	VIYADGARASYAPKVK	GQYAGDLIE	En_Gibbs
-0.33	6/6	GFDLNEYGIS	VIYADGIRTAYADDVK	GNVAGTFDL	En_Gen
1.00	5/6	GFQLNSYGIS	VIYSDGRRTFYGDNVK	GKTAGTFDT	GP_Gibbs
no signal	0/6	GFDLENQGVS	VIYADGKRAAYVDNVK	GYSTGFIDV	En_Gibbs
-0.16	6/6	GFDLNSYGIS	VIYSDGRRTFYGDAVK	GREAGTFDT	GP_Gibbs
no signal	0/6	GFSLGEYGIS	VIYADGKRMVYADSVK	GSESGWFDI	En_Gibbs
0.70	6/6	GFDLNSYGIS	VIYSDGRRTFYIDSVK	GDAAGTFDS	GPLM_Gibbs
1.58	6/6	GFWLNEYGIS	VIYSDGRRTFYGDSVK	GRTAGTFDK	GP_Gen
0.58	1/6	GFDLDEYGIS	VIYADGRRTAYSDSVK	GNVAGTFDQ	En_Gen
-0.11	6/6	GFDLNEYGIS	VIYADGRRTQYIDSVK	GEQAGTFDK	En_HC
0.05	6/6	GFTLNDYGIS	VIYADGRRTFYGDSVK	GRAAGTFNS	Ctrl
no signal	0/6	GFTLNSYGIS	VIYSDGRRTFYIDSVK	GQIAGTFDS	GPLM_Gen
-1.23	6/6	GFDLNEYGIS	VIYADGSRTAYADSVK	GNTAGTFDV	En_Gen
0.23	6/6	GFKLNEYGIS	VIYSDGRRTFYTDSVK	GRFAGTFDS	GPLM_HC
2.01	5/6	GFELNSYGIS	VIYSDGRRTFYADNVK	GQTAGTFDS	GP_Gen
0.62	6/6	GFDLDEYGIS	VIYADGRRTAYADSVK	GQNAGTFDQ	En_HC
-0.79	6/6	GFDLDEYGIS	VIYADGMRTAYSDSVK	GQVAGTFDL	En_Gen
-0.28	6/6	GFQLDEYGIS	VIYADGRRTAYADSVK	GEVAGTFDV	En_HC
no signal	0/6	GFTLNDYGIS	VIYSDGRWTQYIDSVK	GRAAGTFDS	Rand
no signal	0/6	GFGLNSYGIS	VIYSDGRRTFYQDSVK	GRASDGFDS	Ctrl
1.43	1/6	GFSLNSYGIS	VIYSDGRRTFYHDSVK	GKAAGTFDS	GPLM_Gen
0.32	6/6	GFSLNSYGIS	VIYSDGRRTFYADSVK	GNAAGTFDR	GPLM_Gen
2.24	1/6	GFSLDEYGIS	VIYADGVRKSYMDSVK	GNITGTLFA	En_Gibbs
0.73	6/6	GFTLNEYGIS	VIYSDGRRTFYADSVK	GRFAGTFDK	GPLM_HC
1.21	5/6	GFWLNDYGIS	VIYSDGRRTFYHDSVK	GQTAGTFDS	GP_Gibbs
0.05	6/6	GFSLESYGIS	VIYSDGRRTFYGDSVK	GRTAGTFDS	GPLM_Gen
no signal	0/6	GFTLRQYGIS	VIYSDGRRTFYGDSVK	GRAAVTFDQ	Rand
1.09	6/6	GFALNDYGIS	VIYSDGRRTQYIDSVK	GRAAGTFDS	GPLM_HC
0.24	6/6	GFSLNDYGIS	VIYSDGRRTFYVDSVK	GRQAGTFDS	GPLM_Gen
0.43	5/6	GFTLNEYGIS	VIYSDGRRTFYGDSVK	GRAGGTFDS	GPLM_HC
no signal	0/6	GMDLEEYGIS	VIYADGMRTYAVDSVK	GDQGGTLLY	En_Gibbs
1.11	2/6	GFDLNEYGIS	VIYADGMRTAYSDSVK	GENAGTFVI	En_Gen
no signal	0/6	GFTLNSYGIS	VIYSDGRRTFYHDSVK	GRAAGEFDH	Ctrl
2.15	3/6	GFTLNSYGIS	VIYSDGRRTSYGDFVK	GRAAGTFDS	Ctrl
no signal	0/6	GFTLNSYGIS	VIYSDGWRTSYGDSVV	GRAAGTFDS	Ctrl
-0.09	6/6	GFDLNEYGIS	VIYADGMRTFYTDSVK	GANAGTFDQ	En_HC
1.96	5/6	GFTLNSYGIS	VIYSDGKRTFYGDSVK	GRVAGTFDK	GPLM_Gen
-0.46	6/6	GFDLNEYGIS	VIYADGQRTAYSDSVK	GNTAGTFDQ	En_Gen
no signal	0/6	GFNLDEYGVS	VIYADGQRTAYVQTVK	GKTVFVLFD	En_Gibbs
-0.32	6/6	GFDLNEYGIS	VIYADGRRTFYQDSVK	GNVAGTFDS	En_HC

From the list, the first 4 with no signal in any replicate:

| CDR-H1 | CDR-H2 | CDR-H3 | group | mean, log10 nM | seen in |
|---|---|---|---|---|---|
| GFTLNSYGIS | VIYSDGRRTFYGDSVK | GRHAGTFVS | Ctrl | no signal | 0/6 |
| GFDLNSYGIS | VIYSDGRRTFYGDKVK | GRAAGGFDS | Ctrl | no signal | 0/6 |
| GFTLNSYGIS | VIYSDGRRTFYGDSVK | GRLAATFDS | Ctrl | no signal | 0/6 |
| GFNFDEYGIS | VIYADGKRKAYSDSVK | GLSAGTMEV | En_Gibbs | no signal | 0/6 |

A sequence measured in both rounds can read differently, since the two assays cover different ranges.
Empty control strains, which show no peptide, gave a signal in 1% of pairings with all heavy chain designs; the median was 2.08 and 95% of these signals were weaker than 0.84. No background was subtracted.
The authors averaged sequences with at least three values out of six and counted those with two or fewer as poor binders.